# Results taken from PubChem BioAssay AID588436 (Broad Institute, 2011).
# This is a selection; strong and weak results do not stand in their true shares. Some salts or complexes appear as unconnected parts, following the source record. Calls of active or inactive are those of the source. Cut-off read from the data, not from the text of the source: active = activation mostly above about 9.7% (no sharp cut-off); inconclusive = no clear call, values can overlap the other calls; inactive = mostly below about 3.7%.
# Test: inducers of Vibrio cholerae quorum light production without autoinducers, primary screen, BH1578 luxS cqsA deficient, single point (AID 588436)
# Settings: V. cholerae BH1578 lux reporter, luminescence, 6 h, at 18.7 µM; active compounds read high
row,SMILES,activation
1,Cc1ccc(C)c(NP(C)(=O)Oc2ccccc2)c1 (centres undefined),inactive: -1.4%
2,CP(=O)(Nc1cccc(Br)c1)Oc1ccccc1 (centres undefined),inactive
3,Cc1cc(C)cc(OP(C)(=O)Nc2ccccn2)c1 (centres undefined),inactive: 1.54%
4,CCOC(=O)c1ccc(NP(C)(=O)Oc2cc(C)cc(C)c2)cc1 (centres undefined),inactive: -0.392%
5,Cc1cc(C)cc(OP(C)(=O)Nc2ccc(C)cc2C)c1 (centres undefined),inactive
6,COc1ccccc1OP(C)(=O)Nc1cccc(Br)c1 (centres undefined),inactive: -0.597%
7,CC1=NCCc2c1[nH]c1ccccc21.O=[N+]([O-])c1cc([N+](=O)[O-])c(O)c([N+](=O)[O-])c1,inactive: -0.252%
8,O=C(O)c1cccc(Nc2c([N+](=O)[O-])cc([N+](=O)[O-])cc2[N+](=O)[O-])c1,inactive
9,CP(=O)(Nc1ccc(SC(F)(F)F)cc1)Oc1ccccc1 (centres undefined),inactive: -0.601%
10,CCCOc1ccc(NP(C)(=O)Oc2ccc(Cl)cc2)cc1 (centres undefined),inactive: -0.855%
11,CN1CCCCC1COC(=O)C1(O)c2ccccc2CCc2ccccc21 (centres undefined),inactive: -0.226%
12,COc1ccccc1OP(C)(=O)Nc1c(C)cccc1C (centres undefined),inactive
13,CCOC(=O)C(CC)C1=NC(C)(C)Cc2ccccc21.O=[N+]([O-])c1cc([N+](=O)[O-])c(O)c([N+](=O)[O-])c1 (centres undefined),inactive
14,O=[N+]([O-])c1cc([N+](=O)[O-])c(Nc2nnnn2CCO)c([N+](=O)[O-])c1,inactive: -0.466%
15,CC1=C2N=C(C=C3N=C(C(C)=C4[N-][C@@](C)([C@@H]5N=C1[C@](C)(CCC(=O)NC[C@@H](C)OP(=O)([O-])O[C@H]1[C@@H](O)[C@@H](n6cnc7cc(C)c(C)cc76)O[C@@H]1CO)[C@H]5CC(N)=O)[C@@](C)(CC(N)=O)[C@@H]4CCC(N)=O)[C@@](C)(CC(N)=O)[C@@H]3CCC(N)=O)C(C)(C)[C@@H]2CCC(N)=O.[C-]#N.[Co+3],inactive: -0.473%
16,Cc1nc2ccc3ccccc3c2s1.O=[N+]([O-])c1cc([N+](=O)[O-])c(O)c([N+](=O)[O-])c1,inactive: -5.88%
17,O=[N+]([O-])c1cc([N+](=O)[O-])c(-c2cnn(-c3ccccc3)c2)c([N+](=O)[O-])c1,inactive: -0.747%
18,O=[N+]([O-])c1cc([N+](=O)[O-])c(-n2nnc3ccccc32)c([N+](=O)[O-])c1,inactive
19,CP(=O)(Nc1ccccn1)Oc1ccc(Cl)cc1 (centres undefined),inactive: -1.51%
20,O=[N+]([O-])c1cc([N+](=O)[O-])c(O)c([N+](=O)[O-])c1.c1ccc(Oc2ccncc2)cc1,inactive: -0.396%
21,CCOC(=O)c1ccc(NP(C)(=O)Oc2ccc(OC)cc2)cc1 (centres undefined),inactive: -0.468%
22,CCOP(C)(=S)SCC(=O)NC(C)C(=O)O (centres undefined),inactive: -0.641%
23,Cc1cc(C)cc(OP(C)(=O)Nc2ccc(SC(F)(F)F)cc2)c1 (centres undefined),inactive: 0.0425%
24,CCc1ccc(OP(C)(=O)N2CCN(c3ccc([N+](=O)[O-])cc3)CC2)cc1 (centres undefined),inactive

row,SMILES,activation
1,CP(=O)(NC(=O)Nc1ccccc1)Oc1ccccc1 (centres undefined),inactive: 1.51%
2,CP(=O)(Oc1ccccc1)OC(c1ccccc1)C(F)(F)F (centres undefined),inactive: -0.68%
3,CP(=O)(Nc1ccc(SC(F)(F)F)cc1)Oc1ccc(Cl)cc1 (centres undefined),inactive
4,Cc1cccc(C)c1OP(C)(=O)Nc1ccc(SC(F)(F)F)cc1 (centres undefined),inactive: -1.23%
5,Cc1ccc(Nc2c([N+](=O)[O-])cc([N+](=O)[O-])cc2[N+](=O)[O-])cc1,inactive: -7.58%
6,CP(=O)(Nc1ccccc1Br)Oc1ccccc1 (centres undefined),inactive: -3.45%
7,COc1ccccc1OP(C)(=O)Nc1ccccc1 (centres undefined),inactive: -0.57%
8,CP(=S)(Nn1cnnc1)Oc1ccccc1 (centres undefined),inactive: -1.16%
9,Cc1cc(C)cc(OP(C)(N)=O)c1 (centres undefined),inactive: -0.115%
10,COc1ccc(OP(C)(=O)Nc2cccc(F)c2)cc1 (centres undefined),inactive
11,COc1ccccc1OP(C)(=O)Nc1cc(Cl)ccc1C (centres undefined),inactive: -0.106%
12,Cc1ccc(NP(C)(=O)Oc2ccccc2)c(C)c1 (centres undefined),inactive
13,COc1ccccc1OP(C)(=O)Nc1ccc(C)cc1 (centres undefined),inactive: -2.41%
14,CCOC(=O)c1ccc(NP(C)(=O)Oc2ccccc2)cc1 (centres undefined),inactive: -0.623%
15,O=[N+]([O-])c1ccc2c(c1)C=Nc1ccccc1O2,inactive
16,Cc1cccc(C)c1OP(C)(N)=O (centres undefined),inactive
17,CC(C)(C)c1ccc(OP(C)(=O)Nc2ccc(SC(F)(F)F)cc2)cc1 (centres undefined),inactive: -0.347%
18,O=[N+]([O-])c1cc([N+](=O)[O-])c(Nc2cccnc2)c([N+](=O)[O-])c1,inactive
19,CCN(CC)CCCOC(=O)C(O)(c1ccccc1)c1ccccc1,inactive: 0.176%
20,COc1ccccc1OP(C)(=O)Nc1ccc(C)cc1C (centres undefined),inactive: -1.61%
21,CP(=O)(Nc1ccccn1)Oc1ccccc1 (centres undefined),inactive
22,CCc1ccc(OP(C)(=O)O)cc1,inactive: 2.44%
23,O=[N+]([O-])c1cc([N+](=O)[O-])c(Nc2ccccn2)c([N+](=O)[O-])c1,inactive: -0.292%
24,Cc1c(NP(C)(=O)Oc2ccc(C(C)C)cc2)c(=O)n(-c2ccccc2)n1C (centres undefined),inactive: -0.351%

row,SMILES,activation
1,COc1ccc(OP(C)(=O)Nc2ccccn2)cc1 (centres undefined),inactive
2,CN(C)CCOC(=O)C(O)(c1ccccc1)C1CCCC1 (centres undefined),inactive: -0.582%
3,COc1ccccc1OP(C)(=O)Nc1ccc(Br)cc1 (centres undefined),inactive: -0.568%
4,CP(=O)(OCCOc1ccccc1)OCCOc1ccccc1,inactive: -0.399%
5,CCCCCCCCCCCCCCCC1C[N+](C)(C)CCOP(C)(=O)O1 (centres undefined),inactive: -1.89%
6,CP(=O)(Nc1ccc(Cl)cc1Cl)Oc1ccccc1 (centres undefined),inactive: 0.285%
7,COc1ccccc1OP(C)(=O)Nc1ccc(C)c(C)c1 (centres undefined),inactive: -0.752%
8,COc1ccc(OP(C)(=O)Nc2ccccc2Br)cc1 (centres undefined),inactive
9,Cc1cc(C)cc(OP(C)(=O)Nc2cccc(C(F)(F)F)c2)c1 (centres undefined),inactive
10,O=C1C(O)=C([N+](=O)[O-])C(=O)C(O)=C1[N+](=O)[O-],inactive
11,CCOC(=O)c1ccc(NP(C)(=O)Oc2ccc(Cl)cc2)cc1 (centres undefined),inactive: -0.319%
12,CP(=O)(OC12CC3CC(CC(C3)C1)C2)OC12CC3CC(CC(C3)C1)C2,inactive: -0.233%
13,CN(C)C(=O)c1c([N+](=O)[O-])cc([N+](=O)[O-])cc1[N+](=O)[O-],inactive: -0.153%
14,CC(C)(C)c1ccc(OP(C)(=O)O)cc1,inactive: -0.205%
15,COc1ccccc1OP(C)(=O)Nc1ccccc1Br (centres undefined),inactive
16,CP(=O)(Nc1ccc(Cl)cc1)Oc1ccc(F)cc1 (centres undefined),inactive
17,O=C(OCCCN1CCCC1)C(O)(c1ccccc1)C1CCCCC1 (centres undefined),inactive: -0.366%
18,COc1ccccc1OP(C)(=O)Nc1c(C)n(C)n(-c2ccccc2)c1=O (centres undefined),inactive: -1.28%
19,CCc1ccc(OP(C)(=O)Nc2cccnc2)cc1 (centres undefined),inactive: -3.33%
20,CP(=O)(Oc1ccccc1)N1CCOC1=O (centres undefined),inactive
21,COc1ccc(OP(C)(=O)Nc2ccc(Br)cc2)cc1 (centres undefined),inactive
22,CCN(CC)CC(O)COC(=O)C(O)(c1ccccc1)C1CCCCC1 (centres undefined),inactive: -3.12%
23,Cc1ccccc1NP(C)(=O)Nc1ccccc1C,inactive: -0.641%
24,CP(=O)(Nc1ccc2c(c1)OCCO2)Oc1ccccc1 (centres undefined),inactive

row,SMILES,activation
1,CCOP(C)(=S)SCC(=O)NC(C)(CC)C(=O)O (centres undefined),inactive: -2.86%
2,CP(=O)(Nc1ccc(SC(F)(F)F)cc1)Oc1ccc(F)cc1 (centres undefined),inactive: -0.53%
3,Cc1c(C(c2ccc3c(c2)OCO3)c2c(C)n(C)n(-c3ccccc3)c2=O)c(=O)n(-c2ccccc2)n1C.O=[N+]([O-])c1cc([N+](=O)[O-])c(O)c([N+](=O)[O-])c1,inactive
4,O=[N+]([O-])c1ccc(OP2(=O)COCCO2)cc1 (centres undefined),inactive: -0.376%
5,O=[N+]([O-])c1cc([N+](=O)[O-])c(NCC2CCS(=O)(=O)C2)c([N+](=O)[O-])c1 (centres undefined),inactive: -1.18%
6,Cc1cc(-c2cccc3ccccc23)c(C)cn1.O=[N+]([O-])c1cc([N+](=O)[O-])c(O)c([N+](=O)[O-])c1,inactive: -0.256%
7,CN(C)CCOC(=O)C(O)(c1ccccc1)C1CCCCC1 (centres undefined),inactive
8,COc1ccc(NP(C)(=O)Oc2ccccc2OC)cc1 (centres undefined),inactive: 0.396%
9,COc1ccc(OP(C)(=O)Nc2cccc(Br)c2)cc1 (centres undefined),inactive: 0.406%
10,CP(=O)(Nc1ccccc1)Oc1ccc(F)cc1 (centres undefined),inactive
11,CCCCCOc1ccc(NP(C)(=O)Oc2ccc(Cl)cc2Cl)cc1 (centres undefined),inactive
12,O=[N+]([O-])c1cc([N+](=O)[O-])c(OC2CCCCC2O)c([N+](=O)[O-])c1 (centres undefined),inactive
13,Cc1c([N+](=O)[O-])cc([N+](=O)[O-])c(Br)c1[N+](=O)[O-],inactive
14,CCN(CC)CCCOC(=O)C(O)(c1ccccc1)C1CCCCC1 (centres undefined),inactive: -0.61%
15,CCOC(=O)c1ccc(NP(C)(=O)Oc2ccc(F)cc2)cc1 (centres undefined),inactive: -0.17%
16,COc1ccc(OP(C)(=O)Nc2ccc(SC(F)(F)F)cc2)cc1 (centres undefined),inactive: -1.56%
17,COc1ccc2c(c1O)-c1c(O)c(OC)cc3c1[C@H](C2)[N+](C)(C)CC3.O=[N+]([O-])c1cc([N+](=O)[O-])c([O-])c([N+](=O)[O-])c1[O-],inactive: 0.61%
18,O=C(OC1CN2CCC1CC2)c1ccc([N+](=O)[O-])cc1 (centres undefined),inactive: -0.472%
19,O=C(OCCN1CCN(CCOCc2ccccc2)CC1)C(O)(c1ccccc1)c1ccccc1,inactive: -0.247%
20,CP(=O)(Nc1ccccc1F)Oc1ccccc1 (centres undefined),inactive
21,CC(C)c1ccc(OP(C)(=O)Nc2ccc(SC(F)(F)F)cc2)cc1 (centres undefined),inactive: -0.342%
22,O=[N+]([O-])c1cc([N+](=O)[O-])c(Nc2ccc(Cl)cc2)c([N+](=O)[O-])c1,inactive: -5%
